Measured values published in publication PMC5454392, “Selective BET bromodomain inhibition as an antifungal therapeutic strategy” (Nature Communications, 2017).

Chains of the proteins cited; added tags and fusions are not shown. Residues count along the entry.
UniProt P51532, 1453-1564 limits assumed: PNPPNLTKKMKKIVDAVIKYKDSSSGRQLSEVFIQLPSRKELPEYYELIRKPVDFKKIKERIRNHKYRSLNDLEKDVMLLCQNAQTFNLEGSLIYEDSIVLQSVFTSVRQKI

Target: SMARCA4 BD (Homo sapiens, UniProt P51532)
Assay: biochemical
Settings: read-out: inhibition in BROMOscan
Description: The liganded beads were blocked with excess biotin and washed with blocking buffer (SeaBlock (Pierce), 1% BSA, 0.05% Tween 20, 1 mM DTT) to remove unbound ligand and to reduce non-specific phage binding.

`O=C1c2ccccc2Sc2cc(-c3noc(-c4cnccn4)n3)ccc2N1C1CC1` [Compound 1] was tested, and the inhibition at 10 µM was roughly 65%.
